Measured values taken from ChEMBL document CHEMBL4196168 (J Med Chem, 2018).

Experiment: clinical
Conditions: human, in vivo, 100 mg

- Cmax: 20 µM
Structure (SMILES): Cc1ccc(C(=O)c2cc(O)c(O)c([N+](=O)[O-])c2)cc1 [TOLCAPONE]
